Laboratory results from PubChem BioAssay AID1508602 (The Scripps Research Institute Molecular Screening Center, 2020).
The list shows a part of the results, in another mix than the full data. Some salts or complexes appear as unconnected parts, following the source record. Activity calls are given as the source filed them. No stated cut-off is given here; in the data, active means activation above about 4.9%; inactive means the rest.

Chains of the proteins cited; added tags and fusions are not shown.
UniProt Q8TDV0, whole entry: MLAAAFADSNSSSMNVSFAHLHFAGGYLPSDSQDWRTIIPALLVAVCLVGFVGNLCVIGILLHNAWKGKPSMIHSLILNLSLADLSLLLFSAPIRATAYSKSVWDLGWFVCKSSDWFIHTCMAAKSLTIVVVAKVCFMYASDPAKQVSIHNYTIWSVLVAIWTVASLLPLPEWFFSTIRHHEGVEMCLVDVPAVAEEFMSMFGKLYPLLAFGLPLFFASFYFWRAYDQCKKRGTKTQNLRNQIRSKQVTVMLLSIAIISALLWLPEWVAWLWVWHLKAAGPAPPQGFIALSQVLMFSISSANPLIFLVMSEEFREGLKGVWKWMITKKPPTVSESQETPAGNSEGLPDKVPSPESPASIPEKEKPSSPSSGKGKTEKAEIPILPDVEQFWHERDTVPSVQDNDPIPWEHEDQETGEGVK

Biological target: G-protein coupled receptor 151 (Homo sapiens) (UniProt Q8TDV0)
Assay: activates the human receptor GPR151, primary screen, cell-based, PathHunter beta-arrestin, luminescence (AID 1508602);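 further: 0% = median of compound wells and 100% = cells with positive control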
Conditions: PathHunter beta-arrestin GPR151 cells, at 11.2 µM, active compounds read high

Row | Structure (SMILES) | activation
1 | Cc1ccc(C)c(NP(C)(=O)Oc2ccccc2)c1 (stereo not drawn) | inactive: 0.0458%
2 | O=[N+]([O-])c1cc2[nH]c3cc([N+](=O)[O-])c([N+](=O)[O-])cc3c2cc1[N+](=O)[O-] | inactive: -0.34%
3 | C=CCC1(CC=C)CCCCCCCCCCCN1.O=[N+]([O-])c1cc([N+](=O)[O-])c(O)c([N+](=O)[O-])c1 | inactive: -2.15%
4 | CP(=O)(Nc1cccc(Br)c1)Oc1ccccc1 (stereo not drawn) | inactive: -0.0099%
5 | O=[N+]([O-])c1cnc(Nc2c([N+](=O)[O-])cc([N+](=O)[O-])cc2[N+](=O)[O-])c([N+](=O)[O-])c1 | inactive: 2.93%
6 | CC(=O)NC1(NC(C)=O)CC(C)N(C)CC1C.O=[N+]([O-])c1cc([N+](=O)[O-])c(O)c([N+](=O)[O-])c1 (stereo not drawn) | inactive: -0.358%
7 | COc1ccc(OP(C)(=O)Nc2cccc(Cl)c2C)cc1 (stereo not drawn) | inactive: -0.889%
8 | COc1ccccc1OP(C)(=O)Nc1cccc(Br)c1 (stereo not drawn) | inactive: 1.82%
9 | COc1ccccc1OP(C)(=O)Nc1ccc(Cl)cc1 (stereo not drawn) | inactive: 1.68%
10 | CC1=[N+](C)C(C)(C)Cc2ccccc21.O=[N+]([O-])c1cc([N+](=O)[O-])c(O)c([N+](=O)[O-])c1 | inactive: 0.337%
11 | CCOC(=O)c1ccc(NP(C)(=O)Oc2cc(C)cc(C)c2)cc1 (stereo not drawn) | inactive: 2.19%
12 | O=c1[nH]c2cc([N+](=O)[O-])c([N+](=O)[O-])c([N+](=O)[O-])c2[nH]1 | inactive: -0.107%
13 | Cc1ccc(Cl)c(OP(C)(=O)Nc2ccccn2)c1 (stereo not drawn) | inactive: 1.73%
14 | O=[N+]([O-])Nc1nc(CCc2n[nH]c(N[N+](=O)[O-])n2)n[nH]1 | inactive: -0.473%
15 | O=[N+]([O-])C12CC3(O)CC([N+](=O)[O-])(C1)CC([N+](=O)[O-])(C3)C2 | inactive: -0.114%
16 | Nc1c([N+](=O)[O-])cc([N+](=O)[O-])c(Nc2ccc(C(=O)O)cc2)c1[N+](=O)[O-] | inactive: -1.69%
17 | COc1ccccc1OP(C)(=O)Nc1c(C)cccc1C (stereo not drawn) | inactive: 1.89%
18 | CCN(CC)C(C)COC(=O)C(O)(c1ccccc1)c1ccccc1 (stereo not drawn) | inactive: -0.752%
19 | Cc1cc(N(C)C)cc[n+]1C(=O)N(C)C.c1ccc([B-](c2ccccc2)(c2ccccc2)c2ccccc2)cc1 | inactive: -0.674%
20 | CCCOc1ccc(NP(C)(=O)Oc2ccccc2OC)cc1 (stereo not drawn) | inactive: 2.09%
21 | CP(=O)(Nc1cccc(Br)c1)Oc1ccc(Cl)cc1 (stereo not drawn) | inactive: 0.484%
22 | CP(=O)(Nc1ccc(Br)cc1)Oc1ccc(Cl)cc1 (stereo not drawn) | inactive: -0.878%

Row | Structure (SMILES) | activation
23 | CCOC(=O)C(CC)C1=NC(C)(C)Cc2ccccc21.O=[N+]([O-])c1cc([N+](=O)[O-])c(O)c([N+](=O)[O-])c1 (stereo not drawn) | inactive: -0.0514%
24 | COc1ccc(NP(C)(=O)Oc2ccc(Cl)cc2)cc1 (stereo not drawn) | inactive: 2.53%
25 | Cc1cc(-c2nc3ccccc3[nH]2)c2ccccc2n1.O=[N+]([O-])c1cc([N+](=O)[O-])c(O)c([N+](=O)[O-])c1 | inactive: 0.114%
26 | CN(C)/N=C/c1ccc(-c2c([N+](=O)[O-])cc([N+](=O)[O-])cc2[N+](=O)[O-])o1 | inactive: -1.69%
27 | CP(=O)(O)OC(c1ccccc1)C(Cl)(Cl)C(F)(F)F (stereo not drawn) | inactive: 0.0516%
28 | Nc1nonc1-c1no[n+]([O-])c1-c1nonc1N | inactive: -1.26%
29 | CCN(CC)C(=O)c1c([N+](=O)[O-])cc([N+](=O)[O-])cc1[N+](=O)[O-] | inactive: -1.78%
30 | CCOC(=O)c1ccc(NP(C)(=O)Oc2ccc(OC)cc2)cc1 (stereo not drawn) | inactive: -0.628%
31 | Cc1cccc(NP(C)(=O)Oc2ccccc2)c1 (stereo not drawn) | inactive: -0.437%
32 | CP(=O)(O)OC(c1ccc(Cl)cc1)C(F)(F)F (stereo not drawn) | inactive: -0.553%
33 | COc1ccccc1OP(C)(=O)Nc1cccc(Cl)c1C (stereo not drawn) | inactive: -0.562%
34 | Cc1ccc(Cl)cc1OP(C)(=O)Nc1cccc2nsnc12 (stereo not drawn) | inactive: -0.708%
35 | CCOP(C)(=S)SCC(=O)NC(C)C(=O)O (stereo not drawn) | inactive: 0.534%
36 | CP(=O)(Nc1ccccn1)Oc1ccc(Cl)cc1 (stereo not drawn) | active: 6.84%
37 | COc1cc2nc(C)sc2cc1NC(C)=O | inactive: -0.564%
38 | CCOP(C)(=S)SCC(=O)NC(Cc1ccccc1)C(=O)O (stereo not drawn) | inactive: 1.01%
39 | COc1ccc(NP(C)(=O)Oc2ccc(C(C)C)cc2)cc1 (stereo not drawn) | inactive: 0.453%
40 | C=C(C)CC1NC2CC(C)(C)C1c1ccccc12.O=[N+]([O-])c1cc([N+](=O)[O-])c(O)c([N+](=O)[O-])c1 (stereo not drawn) | inactive: -0.814%
41 | CP(=O)(NC(=O)Nc1ccccc1)Oc1ccccc1 (stereo not drawn) | inactive: -0.467%
42 | CP(=O)(O)OC(c1cccc(Cl)c1)C(F)(F)F (stereo not drawn) | inactive: -0.636%
43 | CCN(CC)P(=O)(c1c([N+](=O)[O-])cc([N+](=O)[O-])cc1[N+](=O)[O-])N(CC)CC | inactive: -0.251%
44 | Cc1ccc(NP(C)(=O)Oc2ccccc2)cc1C (stereo not drawn) | inactive: 1.14%

Row | Structure (SMILES) | activation
45 | CP(=O)(Nc1ccc(Cl)cc1)Oc1ccccc1 (stereo not drawn) | inactive: 1.63%
46 | CP(=O)(Nc1ccccc1Br)Oc1ccccc1 (stereo not drawn) | inactive: 0.403%
47 | CC(Nc1c([N+](=O)[O-])cc([N+](=O)[O-])cc1[N+](=O)[O-])c1ccc([N+](=O)[O-])cc1 (stereo not drawn) | inactive: 0.746%
48 | COc1ccccc1OP(C)(=O)Nc1ccccc1 (stereo not drawn) | inactive: 0.467%
49 | CN(C)CCOC(=O)C(O)(c1ccccc1)c1ccccc1 | inactive: -0.037%
50 | CP(=O)(O)OC(c1ccccc1)C(F)(F)F (stereo not drawn) | inactive: 0.371%
51 | COc1ccc(NP(C)(=O)OC(c2ccccc2)C(F)(F)F)cc1 (stereo not drawn) | inactive: 1.76%
52 | O=[N+]([O-])c1cc([N+](=O)[O-])c(CCO)c([N+](=O)[O-])c1 | inactive: 1.17%
53 | COc1ccccc1OP(C)(=O)Nc1ccc(C)cc1 (stereo not drawn) | inactive: -0.228%
54 | Cc1ccc(NP(C)(=O)Oc2ccccc2)c(C)c1 (stereo not drawn) | inactive: -0.234%
55 | CCOC(=O)c1ccc(NP(C)(=O)Oc2ccccc2)cc1 (stereo not drawn) | inactive: 0.579%
56 | CP(=O)(O)OC(c1cccc(C(F)(F)F)c1)C(F)(F)F (stereo not drawn) | inactive: -1.19%
57 | Cc1cc(C)cc(OP(C)(=O)NCc2ccccc2)c1 (stereo not drawn) | inactive: -1.1%
58 | COc1ccccc1OP(C)(=O)Nc1cc(Cl)ccc1C (stereo not drawn) | inactive: 0.0545%
59 | O=C(O)C1(O)c2ccccc2-c2ccccc21 | inactive: -1.02%
60 | CC(C)(C)c1ccc(OP(C)(N)=O)cc1 (stereo not drawn) | inactive: -1.02%
61 | CC(CCN([N+](=O)[O-])S(=O)(=O)c1ccc([N+](=O)[O-])cc1)([N+](=O)[O-])[N+](=O)[O-] | inactive: 0.617%
62 | CP1(=O)Oc2ccccc2Cc2ccccc2O1 | inactive: 0.19%
63 | CCc1ccc(OP(C)(=O)Nc2ccccc2I)cc1 (stereo not drawn) | inactive: 0.463%
64 | O=C(O)Cc1c([N+](=O)[O-])cc([N+](=O)[O-])cc1[N+](=O)[O-] | inactive: -0.975%
65 | O=C(O)C(O)(c1ccccc1)c1ccccc1 | inactive: -1.49%
66 | CCOP(C)(=S)SCN(CC(=O)O)C(=O)OC (stereo not drawn) | inactive: 0.143%

Row | Structure (SMILES) | activation
67 | O=[N+]([O-])c1c(NCCO)c([N+](=O)[O-])c(NCCO)c([N+](=O)[O-])c1NCCO | inactive: 4.76%
68 | CC(C)Oc1ccc(NP(C)(=O)Oc2ccc(Cl)cc2)cc1 (stereo not drawn) | inactive: -0.832%
69 | COc1ccccc1OP(C)(=O)Nc1ccc(Cl)cc1Cl (stereo not drawn) | inactive: 2.43%
70 | CCCCOC(=O)Nc1c([N+](=O)[O-])cc([N+](=O)[O-])cc1[N+](=O)[O-] | inactive: -0.205%
71 | CCN(CC)CCCOC(=O)C(O)(c1ccccc1)c1ccccc1 | inactive: -1.47%
72 | Cc1ccc(NP(C)(=O)Oc2ccccc2)cc1 (stereo not drawn) | inactive: -0.388%
73 | Cc1ccc2c(c1)c1nc(C)sc1n2C.O=[N+]([O-])c1cc([N+](=O)[O-])c(O)c([N+](=O)[O-])c1 | inactive: 0.143%
74 | Cc1cc(C)cc(OP(C)(=O)Nc2ccc(F)cc2)c1 (stereo not drawn) | inactive: 0.0108%
75 | CCN(CC)c1nc(C)cc(C)n1.O=[N+]([O-])c1cc([N+](=O)[O-])c(O)c([N+](=O)[O-])c1 | inactive: 0.267%
76 | Nc1c([N+](=O)[O-])cc([N+](=O)[O-])c(Nc2ccccc2C(=O)O)c1[N+](=O)[O-] | inactive: -1.71%
77 | O=[N+]([O-])c1cc([N+](=O)[O-])c(Nc2ccccn2)c([N+](=O)[O-])c1 | inactive: 0.29%
78 | CCOP(C)(=S)SCN(CC(=O)O)C(=O)OCc1ccccc1 (stereo not drawn) | inactive: 0.812%
79 | Cc1c(NP(C)(=O)Oc2ccc(C(C)C)cc2)c(=O)n(-c2ccccc2)n1C (stereo not drawn) | inactive: -0.162%
80 | CP(=O)(Nc1ccc(F)cc1)Oc1ccc(Cl)cc1 (stereo not drawn) | inactive: 0.156%
81 | CC(CN(C)C)OC(=O)C(O)(c1ccccc1)c1ccccc1 (stereo not drawn) | inactive: -1.03%
82 | CN(C)c1c([N+](=O)[O-])cc([N+](=O)[O-])c(N(C)C)c1[N+](=O)[O-] | inactive: -0.483%
83 | NC(=O)c1c([N+](=O)[O-])cc([N+](=O)[O-])cc1[N+](=O)[O-] | inactive: 2.08%
84 | COc1ccccc1OP(C)(=O)Nc1ccc(Br)cc1 (stereo not drawn) | inactive: 3.08%
85 | COc1ccc(OP(C)(=O)Nc2ccccn2)cc1 (stereo not drawn) | inactive: -0.0708%
86 | CCN(CC)CCOC(=O)C(O)(c1ccccc1)C1CCCCC1 (stereo not drawn) | inactive: 0.985%
87 | CN(C)CCOC(=O)C(O)(c1ccccc1)C1CCCC1 (stereo not drawn) | inactive: 0.227%
88 | Cc1cccc(C)c1OP(C)(=O)Nc1ccccc1 (stereo not drawn) | inactive: 0.969%
